Assay results as given in paper PMC3766633 (Biomaterials, 2013).

Test: Precipitation / aggregation on mixing with LMWP during coupling
Assay type: physicochemical
Conditions: mixing with LMWP or LMWP-SH during the coupling process, observation

SPDP-activated insulin: insulin activated with N-succinimidyl 3-(2-pyridyldithio) propionate
appearance on mixing / reaction with LMWP (precipitation of insoluble complexes): significant precipitation
